In general, pEC50 refers to the negative decadic logarithm of the EC50, by convention in mol/L. By EC50 is commonly meant the concentration at which the effect is half-maximal.

The record followed here is ChEMBL document CHEMBL4371007, “Biased Ligands of G Protein-Coupled Receptors (GPCRs): Structure-Functional Selectivity Relationships (SFSRs) and Therapeutic Potential” (J Med Chem, 2018).

The target of assay [1] is T1, Nociceptin receptor (Homo sapiens, UniProt P41146). The experiment in a line: Agonist activity at human NOPR expressed in human BHK cells assessed as inhibition of forskolin-mediated cAMP accumulation after 10 mins by radioimmuno assay. On the technique in general: Changes in cAMP serve as a functional read-out for many G protein-coupled receptors.
Assay [2] has as its target T2, Kappa-type opioid receptor (Homo sapiens, UniProt P41145). The assay can be described thus: Agonist activity at kappa opioid receptor (unknown origin) assessed as increase in venus-tagged N-terminal beta-arrestin-2 recruitment by BRET assay.
The target in assay [3] is T2, Kappa-type opioid receptor. The experiment in a line: Agonist activity at kappa opioid receptor (unknown origin) expressed in HEK cells co-expressing luciferase based cAMP biosensor assessed as increase in cAMP accumulation after 20 to 30 mins by luciferase reporter gene assay.
Assay [4] concerns the target T1, Nociceptin receptor. The assay can be described thus: Agonist activity at YFP-fused human NOPR expressed in HEK293 cells assessed as inhibition of forskolin-mediated cAMP accumulation measured immediately by luminescence assay.

Turning to `COC(=O)CN1CN(c2ccccc2)C2(CCN(Cc3cccc4ccccc34)CC2)C1=O`, the pEC50 in assay [1] was 7.58. For the molecule `COC(=O)[C@@H]1C[C@H](OC(=O)CSC#N)C(=O)[C@H]2[C@@]1(C)CC[C@H]1C(=O)O[C@H](c3ccoc3)C[C@]21C`, the EC50 in assay [2] stood at 1130 nM; in assay [3], 5.2 nM.

With `CCn1c(=O)n([C@@H]2CCN(C3CCC(C(C)C)CC3)C[C@H]2CO)c2ccccc21` (stereo not given in full), the pEC50 in assay [4] came to 8.14.

For `CCn1c(=O)n([C@@H]2CCN(CC3CCCC4CCCCC43)C[C@H]2CO)c2ccccc21` (stereo not given in full), the pEC50 in assay [4] came to 7.14.
